Measurements from patent US20230348450A1, “CARBOXYLIC ACID-CONTAINING COMPOUNDS AS MODULATORS OF BIS-PHOSPHOGLYCERATE MUTASE FOR THE TREATMENT OF SICKLE CELL DISEASE” (Genzyme Corporation, priority 2020, published 2023).

Chains of the proteins cited; added tags and fusions are not shown.
UniProt P07738, whole entry: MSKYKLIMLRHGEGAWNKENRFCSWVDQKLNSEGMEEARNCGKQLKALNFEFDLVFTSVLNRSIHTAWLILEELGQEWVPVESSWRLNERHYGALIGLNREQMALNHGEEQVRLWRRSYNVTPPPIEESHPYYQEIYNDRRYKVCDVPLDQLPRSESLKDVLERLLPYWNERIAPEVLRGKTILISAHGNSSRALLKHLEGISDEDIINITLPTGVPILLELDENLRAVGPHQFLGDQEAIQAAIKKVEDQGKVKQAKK

Molecular target: hBPGM (Homo sapiens (Human), UniProt P07738)
Assay: BPGM Synthase Assay
Type: biochemical
Settings: read-out: huBPGM: synthase Enzyme IC50; Table 6 additional results
Protocol: Example B1. BPGM Synthase Assay […]
To the assay plate was added Enzyme Solution (20 uL) to columns 2-22 and 24 of the assay plate. […] During this time period, the NADH fluorescence was read at ex: 360/em: 460. […] The resorufin fluorescence was then read at ex:544/em:590.

Cc1ccc(C#N)c(NC(=O)c2ccn(-c3cccc(-c4ccc(C(=O)O)c(O)c4)c3)n2)n1
IC50: 1.8 µM
